We go through three molecules from patent US8106099B2, “Combination of phenylcarboxamides with blockers of the IKr channel and their use for the treatment of atrial arrhythmias” (Sanofi-Aventis Deutschland GmbH, priority 2003, dated 2012).

Sequences of proteins named here, by UniProt entry; tags and fusion partners are left off.
UniProt P22460, whole entry: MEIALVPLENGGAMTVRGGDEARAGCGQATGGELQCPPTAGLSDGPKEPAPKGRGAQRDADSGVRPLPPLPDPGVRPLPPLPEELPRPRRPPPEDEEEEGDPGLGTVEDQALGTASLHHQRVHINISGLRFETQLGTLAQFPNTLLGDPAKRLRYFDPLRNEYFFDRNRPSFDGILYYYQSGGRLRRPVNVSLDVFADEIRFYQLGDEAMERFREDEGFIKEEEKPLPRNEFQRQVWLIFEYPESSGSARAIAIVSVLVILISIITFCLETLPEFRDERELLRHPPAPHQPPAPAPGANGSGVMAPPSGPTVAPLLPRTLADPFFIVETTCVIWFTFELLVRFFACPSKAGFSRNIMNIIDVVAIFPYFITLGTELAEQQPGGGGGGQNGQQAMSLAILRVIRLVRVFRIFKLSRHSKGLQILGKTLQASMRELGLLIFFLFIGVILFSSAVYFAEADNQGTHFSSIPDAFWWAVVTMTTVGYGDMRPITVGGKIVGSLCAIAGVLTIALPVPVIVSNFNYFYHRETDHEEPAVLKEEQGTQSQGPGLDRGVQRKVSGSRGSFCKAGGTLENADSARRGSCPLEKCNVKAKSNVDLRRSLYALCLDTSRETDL

SMILES strings stand for the structures.

The target in experiment [1] is Kv1.5 channels from humans (Homo sapiens, UniProt P22460). In words: cell-based. On the procedure:
Kv1.5 channels from humans were expressed in Xenopus oocytes. […] RNA encoding Kv1.5 synthesized in vitro was then injected into these oocytes. […] The Kv1.5 channels were in this case as a rule activated using voltage jumps to 0 mV and 40 mV lasting 500 ms. […] These experiments were carried out at room temperature.

In experiment [2] the test system is goats in persistent atrial fibrillation. The experiment is described as follows: Efficiency of cardioversion in up to eight goats with persistent atrial fibrillation. It counts as in vivo. As to conditions: monotherapy, +ibutilide 2 mg/kg or +dofetilide 10 μg/kg.

As for `CCCCS(=O)(=O)Nc1ccc(C)cc1C(=O)NC(c1cccnc1)C1CC1` (stereo not shown) [Example 6, 2-(Butyl-1-sulfonylamino)-N-(cyclopropylpyridin-3-ylmethyl)-5-methylbenzamide], the IC50 in experiment [1] came out at 1 µM. This lies in the single-digit micromolar range.
Take `COc1ccc(CC(=O)NCc2ccccc2-c2ccccc2C(=O)NCCc2cccnc2)cc1` [Example 1, 2′-{[2-(4-Methoxyphenyl)acetylamino]methyl}biphenyl-2-carboxylic acid (2-pyridin-3-ylethyl)amide]: the Efficiency of cardioversion is reported as 17% in experiment [2] (example 1 0.1 mg/kg); 17% in experiment [2] (example 1 0.3 mg/kg); 13% in experiment [2] (example 1 1 mg/kg); 38% in experiment [2] (example 1 3 mg/kg); 63% in experiment [2] (example 1 10 mg/kg). Moreover, the “ratio of goats where cardioversion occurred to goats used” value is reported as “(1/6)” in experiment [2] (example 1 0.1 mg/kg); “(1/6)” in experiment [2] (example 1 0.3 mg/kg); “(1/8)” in experiment [2] (example 1 1 mg/kg); “(3/8)” in experiment [2] (example 1 3 mg/kg, listed as Compound of example 1); 3 of 8 in experiment [2] (example 1 3 mg/kg, listed as compound of example 1); “(5/8)” in experiment [2] (example 1 10 mg/kg).
The molecule `CC[C@H](NC(=O)c1cc(F)ccc1NS(=O)(=O)c1cccc2cccnc12)c1ccccc1` [Example 7, (S)-5-Fluoro-2-(quinoline-8-sulfonylamino)-N-(1-phenyl-propyl)benzamide] showed an IC50 in experiment [1] of 1.1 µM.

What is called IC50 is the concentration at which inhibition is half-maximal. A low value points to greater potency in that assay.
